Test: CNS penetration across the brain blood barrier
Details: in vivo
Experimental: Mice are dosed with compounds. Brain to blood ratios are determined by HPLC and LC/MS/MS analysis following oral administration of the test compounds in mice.

In the case of Ibogaine, the “Crossing of the BBB and concentration in brain” value is reported as “cross the BBB and reach micromolar concentrations in brain”.
